Data from PubChem BioAssay AID652048 (National Center for Advancing Translational Sciences (NCATS), 2013).
The entries are a selection whose mix differs from that of the whole data set. The source made the active and inactive calls. Rule as the data show it: active = max activation above about 30%; inactive = the rest.
Also: 0% is about no effect.

The chains behind the UniProt entries cited, without tags or fusion partners.
UniProt P35462, whole entry: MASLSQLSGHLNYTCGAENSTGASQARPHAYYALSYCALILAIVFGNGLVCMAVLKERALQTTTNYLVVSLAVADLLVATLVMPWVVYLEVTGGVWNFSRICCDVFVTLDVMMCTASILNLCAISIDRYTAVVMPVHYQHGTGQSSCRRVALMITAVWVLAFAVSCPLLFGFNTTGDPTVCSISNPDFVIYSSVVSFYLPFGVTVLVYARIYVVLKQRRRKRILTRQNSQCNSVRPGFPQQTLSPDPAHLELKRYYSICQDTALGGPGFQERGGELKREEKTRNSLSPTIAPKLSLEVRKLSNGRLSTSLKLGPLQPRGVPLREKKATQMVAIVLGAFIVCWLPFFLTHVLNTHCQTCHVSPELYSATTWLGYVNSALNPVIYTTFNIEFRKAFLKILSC

The molecules below were run against D(3) dopamine receptor (Homo sapiens) (UniProt P35462) (assay: qHTS of D3 Dopamine Receptor Agonist: qHTS). Conditions: D3R DiscoveRx beta-arrestin cells, luminescence, 90 min; active compounds read high.
Excerpt: D3 DARs represent a very important target for the treatment of several neuropsychiatric disorders. Indeed, one of the most promising therapeutic applications for the D3 DAR is in the area of addiction and related disorders. […] These findings have been observed with a number of addictive substances including cocaine, amphetamine, nicotine, and alcohol. […] Antagonism of the D3 DAR may also be therapeutic in the treatment of schizophrenia or psychosis. […] Since the D3 DAR is expressed in areas of the CNS associated with the control of mood and emotion, it has been hypothesized that selective antagonism of the D3 DAR may be effective in treating psychosis without inducing the motor side effects typically seen with D2 DAR antagonists.
This part of the project aims to discover novel agonist.
NIH Chemical Genomics Center [NCGC]
NIH Molecular Libraries Probe Centers Network [MLPCN]
Assay Submitter (PI): David Sibley, NINDS
Freshly passaged cells are plated in 1536 well white, solid bottom plates at a density of 1500 cells/well in 3microl of complete media. After an overnight incubation at 37 degrees C in 5% CO2, cells are loaded with 23nl of test compound from the compound library (as well as dopamine controls) using a 1536 pintool and incubated at 37 degrees C for 90 minutes. Two microliters of DiscoveRx reagent is then added to all cells, and they are incubated for an additional 30 - 60 minutes at room temperature. Following incubation, luminescence is measured on a ViewLux CCD-based luminometer reader using a 20 sec exposure time.
For COc1ccc(C(c2nnnn2C2CCCC2)N2CCC(n3c(=O)[nH]c4ccccc43)CC2)cc1 (configuration not stated), the max activation was inactive: -5.54%.
In the case of O=C(NCC1(N2CCOCC2)CCCCC1)c1ccccc1Br, the max activation is reported as inactive: 1.31%.
CCCOc1ccc(C(=O)NCC2(N(C)C)CCCCC2)cc1OC was tested, and the max activation was inactive: -11.3%.
For CCCCOc1ccccc1C(=O)NCC1(N2CCOCC2)CCCCC1, the max activation was inactive: 12.3%.
Cc1ccc(C(=O)NCC2(N(C)C)CCCCC2)o1 was tested, and the max activation was inactive: 3.19%.
In the case of CCCCn1nnnc1C(c1ccccc1OC(F)(F)F)N1CCC(n2c(=O)[nH]c3ccccc32)CC1 (configuration not stated), the max activation is reported as inactive: 3.43%.
In the case of CC(C)c1ccc(NC2CCN(C(=O)OC(C)(C)C)CC2)cc1, the max activation is reported as inactive: 2.72%.
In the case of O=[N+]([O-])c1cc([N+](=O)[O-])c(OC2CCCCC2O)c([N+](=O)[O-])c1 (configuration not stated), the max activation is reported as inactive: 0.459%.
With CN(C)c1cccc(C(=O)NCC2(N3CCCCC3)CCCCC2)c1 the max activation was inactive: -19%.
COc1ccc(CN(CCCl)CCCl)cc1Cl was tested, and the max activation was inactive: 7.77%.
O=C(NCC1(N2CCOCC2)CCCCC1)c1cc(F)c(F)cc1Cl was tested, and the max activation was inactive: 1.61%.
With CCC(c1nnnn1C(C)(C)C)N1CCC(n2c(=O)[nH]c3ccccc32)CC1 (configuration not stated) the max activation was inactive: -9.57%.
In the case of COc1cc(OC)c(C(=O)NCC2(N(C)C)CCCCC2)cc1OC, the max activation is reported as inactive: -2.85%.
With CCCCn1nnnc1C(c1ccnc2ccccc12)N1CCC(n2c(=O)[nH]c3ccccc32)CC1 (configuration not stated) the max activation was inactive: 1.23%.
For CCOC(=O)N1CCC(Nc2ccc(C)cc2)CC1, the max activation was inactive: 2.79%.
COc1cccc(C(c2nnnn2C(C)(C)C)N2CCC(n3c(=O)[nH]c4ccccc43)CC2)c1OC (configuration not stated) was tested, and the max activation was inactive: -15.1%.
N/C(=N\O)c1c(N)no[n+]1[O-] was tested, and the max activation was inactive: 0.734%.
In the case of O=c1[nH]c2ccccc2n1C1CCN(C(c2cccs2)c2nnnn2C2CCCC2)CC1 (configuration not stated), the max activation is reported as inactive: 9.52%.
O=C(O)c1cccc(Nc2c([N+](=O)[O-])cc([N+](=O)[O-])cc2[N+](=O)[O-])c1 was tested, and the max activation was inactive: -24%.
For CCc1cc(C(=O)NCC2(N3CCCCC3)CCCCC2)sc1C, the max activation was inactive: -20.3%.
For O=C(OC1CN2CCC1CC2)C1c2ccccc2C=Cc2ccccc21 (configuration not stated), the max activation was inactive: 2.44%.
With CCCCn1nnnc1C(c1cccc(OC)c1OC)N1CCC(n2c(=O)[nH]c3ccccc32)CC1 (configuration not stated) the max activation was inactive: 5.97%.
With COc1cc(C(=O)NCC2(N3CCOCC3)CCCCC2)cc(OC)c1C the max activation was inactive: -5.27%.
For CCCCn1nnnc1C(c1ccccc1)N1CCC(n2c(=O)[nH]c3ccccc32)CC1 (configuration not stated), the max activation was inactive: -7.56%.
In the case of O=C(NCC1(N2CCOCC2)CCCCC1)c1cc(Br)ccc1Cl, the max activation is reported as inactive: -3.13%.
O=c1[nH]c2ccccc2n1C1CCN(C(c2cccs2)c2nnnn2C2CCCCC2)CC1 (configuration not stated) was tested, and the max activation was inactive: -5.19%.
For O=c1[nH]c2ccccc2n1C1CCN(C(c2ccnc3ccccc23)c2nnnn2C2CCCC2)CC1 (configuration not stated), the max activation was inactive: 9.79%.
In the case of COc1ccc(C(=O)NCC2(N3CCOCC3)CCCCC2)cc1OC, the max activation is reported as inactive: -1.7%.
With CN(C)C1(CNC(=O)c2cccc(C#N)c2)CCCCC1 the max activation was inactive: -26.1%.
In the case of O=C(NCC1(N2CCOCC2)CCCCC1)c1ccccc1, the max activation is reported as inactive: -4.79%.
With Cc1cc(N(CCCl)CCCl)ccc1C=O the max activation was inactive: 7.46%.
For CCCN1CCC(Nc2cc(OC)cc(OC)c2)CC1, the max activation was inactive: -9.59%.
O=c1[nH]c2ccccc2n1C1CCN(C(c2ccccc2)c2nnnn2C2CCCC2)CC1 (configuration not stated) was tested, and the max activation was inactive: -12.3%.
For c1ccc(CN2CCC(Nc3ccccc3)CC2)cc1, the max activation was inactive: 0.747%.
In the case of CC(C)(C)n1nnnc1C(c1cccc2ccccc12)N1CCC(n2c(=O)[nH]c3ccccc32)CC1 (configuration not stated), the max activation is reported as inactive: 3.22%.
In the case of N#Cc1ccc(C(=O)NCC2(N3CCCCC3)CCCCC2)cc1, the max activation is reported as inactive: 0.558%.
For O=C(NCC1(N2CCOCC2)CCCCC1)c1ccccc1[N+](=O)[O-], the max activation was inactive: -14.1%.
With CC(C)(C)OC(=O)N1CCC(N(C(=O)c2ccccc2)c2ccc(Cl)cc2)CC1 the max activation was inactive: -3.84%.
For O=C(NCC1(N2CCOCC2)CCCCC1)c1ccc([N+](=O)[O-])cc1, the max activation was inactive: 3.08%.
In the case of CCOC(=O)C(CC)C1=NC(C)(C)Cc2ccccc21.O=[N+]([O-])c1cc([N+](=O)[O-])c(O)c([N+](=O)[O-])c1 (configuration not stated), the max activation is reported as inactive: -4.03%.
CCN1CCC(Nc2cccc(F)c2)CC1 was tested, and the max activation was inactive: 0.0835%.
With COc1ccc(C(c2nnnn2C2CCCCC2)N2CCC(n3c(=O)[nH]c4ccccc43)CC2)cc1 (configuration not stated) the max activation was inactive: -12.5%.
In the case of CC(C)(C)n1nnnc1C(c1ccnc2ccccc12)N1CCC(n2c(=O)[nH]c3ccccc32)CC1 (configuration not stated), the max activation is reported as inactive: 0.84%.
For Cc1ccccc1NC1(C#N)CCN(Cc2ccccc2)CC1, the max activation was inactive: -5.32%.
With Cc1ccccc1C(=O)NCC1(N(C)C)CCCCC1 the max activation was inactive: 18.2%.
With CN(C)c1ccc(C(=O)NCC2(N3CCCCC3)CCCCC2)cc1 the max activation was inactive: -11.6%.
In the case of Cn1c(=O)[nH]cc(N(CCCl)CCCl)c1=O, the max activation is reported as inactive: 7.32%.
O=C(NCC1(N2CCCCC2)CCCCC1)c1ccco1 was tested, and the max activation was inactive: -9.72%.
CC(C)(C)c1ccc(C(=O)NCC2(N3CCOCC3)CCCCC2)cc1 was tested, and the max activation was inactive: -9.99%.
For CCC(c1nnnn1C1CCCCC1)N1CCC(n2c(=O)[nH]c3ccccc32)CC1 (configuration not stated), the max activation was inactive: -4.51%.
For CN(C)C1(CNC(=O)c2ccc(C(C)(C)C)cc2)CCCCC1, the max activation was inactive: -23.9%.
With COc1cccc(C(c2nnnn2C2CCCCC2)N2CCC(n3c(=O)[nH]c4ccccc43)CC2)c1OC (configuration not stated) the max activation was inactive: 7.34%.
With CC(=O)N(c1ccccc1)C1CCNCC1 the max activation was inactive: 12%.
With COc1cc(OC)cc(C(=O)NCC2(N3CCCCC3)CCCCC2)c1 the max activation was inactive: -12.9%.
In the case of O=c1[nH]c2ccccc2n1C1CCN(C(c2ccnc3ccccc23)c2nnnn2C2CCCCC2)CC1 (configuration not stated), the max activation is reported as inactive: 7.3%.
For Fc1ccccc1NC1CCN(Cc2ccccc2)CC1, the max activation was inactive: -27.5%.
For Cc1ccc(Nc2c([N+](=O)[O-])cc([N+](=O)[O-])cc2[N+](=O)[O-])cc1, the max activation was inactive: -5.99%.
With Cc1ccc(C(=O)NCC2(N3CCCCC3)CCCCC2)o1 the max activation was inactive: -10.1%.
In the case of Cc1ccc(NC2(C#N)CCN(Cc3ccccc3)CC2)cc1, the max activation is reported as inactive: 2.18%.
COc1cc(OC)cc(C(=O)NCC2(N3CCOCC3)CCCCC2)c1 was tested, and the max activation was inactive: -10.9%.
With COc1cccc(C(c2nnnn2C2CCCC2)N2CCC(n3c(=O)[nH]c4ccccc43)CC2)c1OC (configuration not stated) the max activation was inactive: 4.69%.
COc1cc(C(=O)NCC2(N3CCOCC3)CCCCC2)cc(OC)c1OC was tested, and the max activation was inactive: -8.33%.
COc1cccc(C(=O)N(c2cc(C)cc(C)c2)C2CCN(C(=O)OC(C)(C)C)CC2)c1 was tested, and the max activation was inactive: -10.2%.
In the case of CCC(CO)(C(=O)OC1CN2CCC1CC2)c1ccccc1 (configuration not stated), the max activation is reported as inactive: -3.31%.
In the case of CN1CCC(Nc2ccc(Cl)cc2)CC1, the max activation is reported as inactive: 0.418%.
With CN1CCC(Nc2ccc(F)c(Cl)c2)CC1 the max activation was inactive: -3.14%.
In the case of CCOc1ncccc1C(=O)NCC1(N2CCOCC2)CCCCC1, the max activation is reported as inactive: -7.46%.
O=C(O)C1(Nc2ccccc2)CCN(Cc2ccccc2)CC1 was tested, and the max activation was inactive: -1.27%.
In the case of NN(c1ccccc1)C1CCN(CCc2ccccc2)CC1, the max activation is reported as inactive: -10.6%.
For CC(C)(C)OC(=O)N1CCC(Nc2ccccc2)CC1, the max activation was inactive: -6.7%.
In the case of O=c1[nH]c2ccccc2n1C1CCN(C(c2cc3ccccc3o2)c2nnnn2C2CCCC2)CC1 (configuration not stated), the max activation is reported as inactive: 0.53%.
In the case of CCCOc1ccc(C(=O)NCC2(N(C)C)CCCCC2)cc1, the max activation is reported as inactive: -1.15%.
